Literature values, collected in publication PMC3314146.

Protein sequences, listed by entry. Tags and fused reporters are not part of them. Residues count along the entry.
UniProt P43896, 56-338: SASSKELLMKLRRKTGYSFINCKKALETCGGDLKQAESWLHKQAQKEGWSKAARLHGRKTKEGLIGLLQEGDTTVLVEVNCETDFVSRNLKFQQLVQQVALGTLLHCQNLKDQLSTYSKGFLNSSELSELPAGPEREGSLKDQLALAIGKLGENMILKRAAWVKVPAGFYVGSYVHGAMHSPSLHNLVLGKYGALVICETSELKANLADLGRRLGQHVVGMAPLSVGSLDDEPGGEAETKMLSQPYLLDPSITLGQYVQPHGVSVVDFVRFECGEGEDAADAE

Molecular target: EF-Tsmt (Bos taurus) (UniProt P43896)

Kd: 5.5 nM
Substance: EF-Tumt (from UniProt P49410)
